Publication PMC7069796 (Breast cancer research and treatment, 2020)

Sequences of proteins named here, by UniProt entry; tags and fusion partners are left off. Residues count along the entry.
UniProt P03372, 282-595 Y537S: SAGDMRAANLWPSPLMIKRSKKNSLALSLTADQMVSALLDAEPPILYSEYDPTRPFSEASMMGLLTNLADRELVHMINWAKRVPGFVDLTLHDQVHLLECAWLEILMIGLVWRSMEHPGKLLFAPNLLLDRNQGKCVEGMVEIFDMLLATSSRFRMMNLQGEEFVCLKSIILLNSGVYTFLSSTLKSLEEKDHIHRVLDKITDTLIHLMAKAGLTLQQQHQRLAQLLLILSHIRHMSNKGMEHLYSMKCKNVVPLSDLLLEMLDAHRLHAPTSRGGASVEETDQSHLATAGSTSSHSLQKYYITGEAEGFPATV

Target: Estrogen Receptor Alpha (ERα) (Homo sapiens, UniProt P03372, Y537S)
Assay: LanthaScreen TR-FRET competitive binding assay with purified GST-ERα LBD

SMILES: C[C@@H]1Cc2c([nH]c3ccccc23)[C@@H](c2c(F)cc(/C=C/C(=O)O)cc2F)N1CC(C)(C)F [AZD9496, (E)-3-(3,5-Difluoro-4-((1R,3R)-2-(2-fluoro-2-methylpropyl)-3-methyl-2,3,4,9-tetra hydro-1H-pyrido[3,4-b]indol-1-yl)phenyl)acrylic Acid]
- IC50: 14.8 nM
